Screening results deposited in PubChem BioAssay by Broad Institute.
esBAF inh = SWI/SNF esBAF complex inhibition | mouse ES cells, Bmi1-luciferase knock-in reporter, 24 h; 100% = twice the neutral-well signal | reporter increase, % at 12.5 µM | hit rate 2% among 350,000; in the data active = activation above about 40%; inconclusive = no clear call, values can overlap the other calls;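 also: a rise in the Bmi1 reporter signal indicates esBAF inhibition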
Yeast UUG start = alters start codon recognition fidelity in yeast; AID 602363; activity score, % at 18.7 µM; 350,000 tested, 0.13% active; S. cerevisiae UUG-firefly luciferase reporter, luminescence/redox ratio;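 active means replicate mean at a twofold rise or more, about +100% in these data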;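 further: firefly luciferase made from a UUG start codon reports start codon fidelity; reporter light over untreated wells divided by growth signal over untreated wells; some hits fall short of that in this replicate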
Wnt bcat act = activators of Wnt/beta-catenin signaling | Wnt/beta-catenin reporter cell assay, activator, plate reader | activation, % at 9.35 µM | hit rate 1.2% among 300,000 | AID 743398; in the data active = activation above about 30%, passing the limit was not always enough; inconclusive = no clear call, values can overlap the other calls
MITF TRPM1 HTS = activators of MITF-driven TRPM1 promoter activity in SK-MEL-5 cells | SK-MEL-5 TRPM1-promoter luciferase, 24 h; % of positive control, neutral wells = 0 | activation, % at 12.5 µM | hit rate 0.75% among 300,000;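 active = mean activation of at least 80% with every replicate also reaching 80%; inconclusive = mean reaches 80% but some replicate falls short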
miR-122 sensor = inhibitors of miR-122 in Huh7 cells; Huh7 miR-122 Renilla luciferase sensor, 48 h; neutral wells = 0, positive control = 100; activation (reporter increase), % at 12.5 µM; hit rate 0.3% among 340,000;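 active = mean replicate activation score at least 90 and every replicate individually at or above 90; inconclusive = only one of the two criteria met; inactive = neither criterion met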;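 also: higher luciferase means less miR-122 activity so hits act as miR-122 inhibitors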
PglD inh = PglD (C. jejuni) enzyme inhibition; purified PglD enzyme, DTNB colorimetric CoA detection; inhibition, % at 12.5 µM; hit rate 0.098% among 360,000; in the data active = inhibition above about 16%, passing the limit was not always enough; inconclusive = no clear call, values can overlap the other calls
PglD inh SP = confirmation of Campylobacter jejuni PglD acetyltransferase inhibitors; shares compounds with PglD inh; Purified C. jejuni PglD, DTNB absorbance 412 nm; inhibition, % at 20 µM; 320 tested, under 10 active;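 active = mean inhibition across replicates of at least 20% with every single replicate also at 20% or more; inconclusive = mean inhibition at least 20% but some replicate falls below 20%; inactive = mean inhibition under 20% and not all replicates reach it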;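 also: initial rate of CoA release by acetyl transfer from AcCoA to the UDP-4-amino sugar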
Large screens that a line does not name were inactive (follow-up assays come after a bar, where they were run); ! = not active in a repeat. In the library only some 2.8% were active in any assay of this set; here they are far more common.

C[C@@H]1CCCCO[C@H](CN(C)Cc2ccccc2)[C@H](C)CN([C@H](C)CO)C(=O)c2cc(NS(C)(=O)=O)ccc2O1	none (no result: Yeast UUG start, Wnt bcat act, MITF TRPM1 HTS, PglD inh)
O=C(C[C@@H]1C[C@H]2c3cc(NC(=O)C4CCOCC4)ccc3O[C@H]2[C@H](CO)O1)NCC1CC1	none (no result: Wnt bcat act, MITF TRPM1 HTS)
CCOc1ccc2[nH]c3nc(SCC(=O)NCC4CCCO4)nnc3c2c1 (centres undefined)	PglD inh 24 | PglD inh SP inactive
CNC[C@@H]1Oc2ccc(NC(=O)Nc3ccc4c(c3)OCO4)cc2CC(=O)N([C@H](C)CO)C[C@H]1C	none (no result: Wnt bcat act, MITF TRPM1 HTS)
O=C(Nc1ccccc1C(=O)N1CCOCC1)C1CC(=O)N(C2CCCC2)C1 (centres undefined)	PglD inh 33 (no result: Wnt bcat act) | PglD inh SP inactive
O=C(Nc1ccccc1C(=O)N1CCOCC1)C1CC(=O)N(c2ccc(F)cc2)C1 (centres undefined)	none
O=C(O)CC1(CC(=O)Nc2ccc3c(c2)C(=O)OC3)CCCCC1	PglD inh 21 (no result: esBAF inh, MITF TRPM1 HTS) | PglD inh SP inactive
COc1ccccc1CNC(=O)c1cc2ccccc2o1	none
COc1ccccc1CNC(=O)c1cc2ccccc2oc1=O	PglD inh 32 (no result: esBAF inh, miR-122 sensor) | PglD inh SP inactive
COc1ccc(CCCNC(=O)C2(C)Cc3c(-c4ccc(C(N)=O)cc4)ccnc3O2)cc1 (centres undefined)	none (no result: MITF TRPM1 HTS)
COc1ccc(CCCNC(=O)C2(C)Cc3c(-c4ccc5c(c4)OCO5)ccnc3O2)cc1 (centres undefined)	PglD inh 22 (no result: MITF TRPM1 HTS) | PglD inh SP inactive
CC(C)NC(=O)N(C)C[C@H]1Oc2cc(C#Cc3ccc(F)cc3)ccc2S(=O)(=O)N([C@H](C)CO)C[C@H]1C	PglD inh 21! (no result: MITF TRPM1 HTS) | PglD inh SP inactive
CC(C)NC(=O)N(C)C[C@H]1Oc2cc(C#Cc3ccc(F)cc3)ccc2S(=O)(=O)N([C@@H](C)CO)C[C@@H]1C	none (no result: Wnt bcat act, MITF TRPM1 HTS)
CNS(=O)(=O)c1ccc2c3c(cccc13)C(=O)N2	none (no result: MITF TRPM1 HTS, miR-122 sensor)
CNS(=O)(=O)c1cc(S(=O)(=O)NC)c2cccc3c2c1NC3=O	PglD inh 77 (no result: MITF TRPM1 HTS) | PglD inh SP inactive
CN1CCN(C(=O)C[C@H]2CC[C@H]3[C@@H](COC[C@H](O)CN3C(=O)Nc3ccc(F)cc3)O2)CC1	none (no result: Yeast UUG start, Wnt bcat act, MITF TRPM1 HTS)
OCc1ccc(N=Nc2ccccc2)cc1	none (no result: esBAF inh, MITF TRPM1 HTS)
COc1ccc(N=Nc2ccc(CO)cc2)cc1	PglD inh 45 (no result: esBAF inh, MITF TRPM1 HTS, miR-122 sensor) | PglD inh SP inactive
CC(C)Cc1nc(N2CCN(C(=O)c3ccccc3)CC2)c(C#N)c2c1CCC2	none (no result: Wnt bcat act, MITF TRPM1 HTS)
CC(C)Cc1nc(N2CCN(C(=O)c3ccco3)CC2)c(C#N)c2c1CCC2	PglD inh 21 (no result: Wnt bcat act) | PglD inh SP inconclusive
O=C(Nc1ccc2nc(-c3ccccn3)[nH]c2c1)C1CCCCC1	none (no result: esBAF inh)
CC(C)c1nc2ccc(NC(=O)C3CCCCC3)cc2[nH]1	PglD inh 34 (no result: MITF TRPM1 HTS) | PglD inh SP inactive
Cc1nnc(N2C(=O)c3ccc(Br)cc3C2=O)s1	PglD inh 22 | PglD inh SP inactive
O=C1c2ccc(Br)cc2C(=O)N1c1ccc(Cl)cn1	none
CCC(=O)N1CC[C@@H]2[C@H](CO)Nc3ccc(-c4ccc(F)cc4)cc3[C@@H]21	none (no result: Wnt bcat act, MITF TRPM1 HTS)
O=C(COc1ccc(S(=O)(=O)N2CCCCC2)cc1)N1CCCCCC1	PglD inh 21 (no result: Wnt bcat act) | PglD inh SP inactive
CC1CCN(C(=O)COc2ccc(S(=O)(=O)N3CCCC3)cc2)CC1	none
CCOC(=O)C1=C(C)N(c2ccccc2)C(=O)NC1c1cccc([N+](=O)[O-])c1 (centres undefined)	PglD inh 21 (no result: esBAF inh) | PglD inh SP inactive
Cc1ccc(S(=O)(=O)Nc2ccc3c(c2)C(=O)N([C@H](C)CO)C[C@@H](C)[C@@H](CN(C)Cc2ccc4c(c2)OCO4)OCCCC[C@@H](C)O3)cc1	none (no result: Wnt bcat act, MITF TRPM1 HTS)
CCn1c(SCC(=O)Nc2ccc3c(c2)OCCO3)nnc1-c1ccccn1	PglD inh 76 (no result: Wnt bcat act) | PglD inh SP inactive
CN(C)C(=O)C[C@H]1CC[C@@H]2[C@@H](COc3ccc(NS(=O)(=O)c4cccc(F)c4)cc3C(=O)N2C)O1	none (no result: Wnt bcat act, MITF TRPM1 HTS)
O=C(Nc1ccc(OCC(=O)N2CCOCC2)cc1)Nc1cccc(Cl)c1	none (no result: esBAF inh, Yeast UUG start, miR-122 sensor, PglD inh)
O=C(Nc1ccc(C(=O)N2CCOCC2)cc1)Nc1cccc(Cl)c1	PglD inh 25 (no result: esBAF inh, Wnt bcat act) | PglD inh SP inactive
Cc1cc(C(=O)Nc2cccc3c2O[C@@H](CN(C)C(=O)NC2CCCCC2)[C@@H](C)CN([C@@H](C)CO)C3=O)n(C)n1	none (no result: Wnt bcat act, MITF TRPM1 HTS)
Cc1cc(N2CCOCC2)nc2ccc(NC(=O)CCC(=O)N3CCCCC3)cc12	PglD inh 24 (no result: Wnt bcat act) | PglD inh SP inactive
COc1cnc(-c2cccc(C(F)(F)F)c2)c(NC(=O)c2cc3ccccc3s2)n1	PglD inh 30 (no result: MITF TRPM1 HTS) | PglD inh SP inactive
CCCCN1C(=O)c2ccc(C(=O)Nc3ccc(C)c(S(=O)(=O)N(C)C)c3)cc2C1=O	PglD inh 25 (no result: Wnt bcat act) | PglD inh SP inactive
CCCCN1C(=O)c2ccc(C(=O)Nc3cccc(C)c3C)cc2C1=O	none
O=C(NCc1cccc(Cl)c1)c1ccc(-n2cncn2)c2ccoc12	PglD inh 22 (no result: MITF TRPM1 HTS) | PglD inh SP inactive
CCC(=O)N1C[C@@H](C)[C@H](OC)CN(C)C(=O)c2cc(NC(=O)c3ccc(OC)cc3)ccc2OC[C@H]1C	none (no result: Yeast UUG start, Wnt bcat act, MITF TRPM1 HTS)
Cc1ccc2nc(C)cc(OCC(=O)O)c2c1	PglD inh 21 | PglD inh SP inactive
CC(=O)NCC(=O)OCC(=O)c1ccc(Br)cc1	none
CC(=O)NCC(=O)OCC(=O)c1ccc(Cl)cc1	PglD inh 26 | PglD inh SP inactive
C[C@@H]1CN([C@H](C)CO)C(=O)c2cc(NC(=O)Nc3cccc4ccccc34)ccc2O[C@H]1CN(C)Cc1ccc(-c2ccccc2)cc1	none (no result: Wnt bcat act, MITF TRPM1 HTS)
Cn1c(CC(=O)Nc2ccccc2Cl)nnc1SCC(=O)Nc1nncs1	PglD inh 26 | PglD inh SP inactive
COc1ccc(S(=O)(=O)N(C)C[C@@H]2Oc3cc(C#CC4CC4)ccc3S(=O)(=O)N([C@H](C)CO)C[C@@H]2C)cc1	none (no result: Wnt bcat act, MITF TRPM1 HTS)
CC1C(=O)NN=C1c1ccc([N+](=O)[O-])cc1 (centres undefined)	none (no result: esBAF inh, Yeast UUG start, miR-122 sensor, PglD inh)
CC1CN2C(c3ccc([N+](=O)[O-])cc3)=CSC2=N1 (centres undefined)	PglD inh 75 (no result: MITF TRPM1 HTS) | PglD inh SP inactive
COc1ccc(NC(=O)Nc2ccc3c(c2)[C@@H]2C[C@H](CC(=O)NCCc4ccccc4)O[C@@H](CO)[C@@H]2O3)cc1	none (no result: Yeast UUG start, Wnt bcat act, MITF TRPM1 HTS)
O=Cc1ccc(OCCN2CCCC2=O)cc1	PglD inh 44 | PglD inh SP inactive
O=C(OCC(=O)N1CCC(Cc2ccccc2)CC1)c1ccc(O)cc1	PglD inh 24 (no result: MITF TRPM1 HTS) | PglD inh SP inactive
CCCNC(=O)N(C)C[C@H]1Oc2ncc(-c3ccncc3)cc2C(=O)N([C@@H](C)CO)C[C@@H]1C	none (no result: Wnt bcat act, MITF TRPM1 HTS)
